Literature values in patent US20190151329A1, “THERAPEUTIC USE OF DIAMINOPHENOTHIAZINES” (WisTa Laboratories Ltd., priority 2007, published 2019).

Experiments:
[1] = human; 10 mg oral; urinary excretion data; cited from earlier work
[2] = rat; 2 minutes following administration; cited from earlier work

CN(C)c1ccc2nc3ccc(=[N+](C)C)cc-3sc2c1 [MTC, methylthioninium chloride]
VcF (Vc × F), Free (Ox-MTC) [1]: 29.7918 L
intravenous dose recovered in heart, lung, liver and kidney [2]: 29.8%
